{"source": "IntAct's records for PubMed 29892012", "parents": {"B1": {"name": "Zinc finger protein 366 (Homo sapiens), Q8N895 (parent)", "chain": "MQKEMKMIKDEDVHFDLAVKKTPSFPHCLQPVASRGKAPQRHPFPEALRGPFSQFRYEPPPGDLDGFPGVFEGAGSRKRKSMPTKMPYNHPAEEVTLALHSEENKNHGLPNLPLLFPQPPRPKYDSQMIDLCNVGFQFYRSLEHFGGKPVKQEPIKPSAVWPQPTPTPFLPTPYPYYPKVHPGLMFPFFVPSSSPFPFSRHTFLPKQPPEPLLPRKAEPQESEETKQKVERVDVNVQIDDSYYVDVGGSQKRWQCPTCEKSYTSKYNLVTHILGHSGIKPHACTHCGKLFKQLSHLHTHMLTHQGTRPHKCQVCHKAFTQTSHLKRHMMQHSEVKPHNCRVCGRGFAYPSELKAHEAKHASGRENICVECGLDFPTLAQLKRHLTTHRGPIQYNCSECDKTFQYPSQLQNHMMKHKDIRPYICSECGMEFVQPHHLKQHSLTHKGVKEHKCGICGREFTLLANMKRHVLIHTNIRAYQCHLCYKSFVQKQTLKAHMIVHSDVKPFKCKLCGKEFNRMHNLMGHMHLHSDSKPFKCLYCPSKFTLKGNLTRHMKVKHGVMERGLHSQGLGRGRIALAQTAGVLRSLEQEEPFDLSQKRRAKVPVFQSDGESAQGSHCHEEEEEDNCYEVEPYSPGLAPQSQQLCTPEDLSTKSEHAPEVLEEACKEEKEDASKGEWEKRSKGDLGAEGGQERDCAGRDECLSLRAFQSTRRGPSFSDYLYFKHRDESLKELLERKMEKQAVLLGI"}, "B2": {"name": "Zinc finger protein 366 (Homo sapiens), Q8N895 (parent)", "chain": "B1 chain", "partner": "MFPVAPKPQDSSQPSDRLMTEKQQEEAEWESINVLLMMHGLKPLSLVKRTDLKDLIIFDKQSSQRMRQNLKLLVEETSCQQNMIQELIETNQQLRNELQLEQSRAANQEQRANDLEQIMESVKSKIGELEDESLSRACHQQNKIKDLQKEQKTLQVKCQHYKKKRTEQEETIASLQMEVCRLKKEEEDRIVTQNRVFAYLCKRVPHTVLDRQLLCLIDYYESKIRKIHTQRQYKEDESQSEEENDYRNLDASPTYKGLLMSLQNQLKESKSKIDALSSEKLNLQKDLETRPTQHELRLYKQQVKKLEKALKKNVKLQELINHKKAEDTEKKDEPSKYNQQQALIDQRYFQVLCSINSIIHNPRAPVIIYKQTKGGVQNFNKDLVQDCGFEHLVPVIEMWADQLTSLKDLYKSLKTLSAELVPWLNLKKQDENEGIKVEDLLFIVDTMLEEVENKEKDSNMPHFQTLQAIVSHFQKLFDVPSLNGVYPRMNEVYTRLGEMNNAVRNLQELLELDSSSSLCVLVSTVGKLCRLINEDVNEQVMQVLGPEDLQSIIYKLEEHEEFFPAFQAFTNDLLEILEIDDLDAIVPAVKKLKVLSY"}}, "data": [{"variants_of": "B1", "conditions": "with psa3_human PSMA3, P25788", "values": [{"variant": "S485G", "effect of a mutation on the interaction": "with no effect"}]}, {"variants_of": "B2", "conditions": "with cep70_human CEP70, Q8NHQ1", "values": [{"variant": "S485G", "effect of a mutation on the interaction": "disrupting interaction strength"}]}]}
